Measurements published in patent publication US20260077065A1, “Compositions and Methods for Assessing Kinase Activity” (The Board of Trustees of the Leland Stanford Junior …, priority 2022, published 2026).

Test system: Akt
Conditions: 3 hours after administration; CFz

CC(C)NC[C@@H](C(=O)N1CCN(c2ncnc3c2[C@H](C)C[C@H]3O)CC1)c1ccc(Cl)cc1 [GDC-0068, ipatasertib]
higher response of Akt oKiMBI mice compared to oKiMBImut mice: ~130%
